Source: ChEMBL document CHEMBL4152205, “Therapeutic journery of nitrogen mustard as alkylating anticancer agents: Historic to future perspectives” (2018)

How the values were obtained:
U-87 MG = experiment: Cytotoxicity against human U87 cells assessed as reduction in cell viability after 3 days by MTT assay; details: u-87mg atcc
IMR-32 = experiment: Cytotoxicity against human IMR32 cells assessed as reduction in cell viability after 3 days by MTT assay
COLO 205 = experiment: Cytotoxicity against human COLO205 cells assessed as reduction in cell viability after 3 days by MTT assay
A549 = experiment: Cytotoxicity against human A549 cells assessed as reduction in cell viability after 3 days by MTT assay

Measured: IC50

O=C(O)CCCc1ccc(N(CCCl)CCCl)cc1
18.8 to 26.7 µM: all assays above
